The values that follow come from patent US20200377563A1.

Experiment [1] has as its target Recombinant TNF-α (R&D Systems, 210-TA-100/CF) (UniProt P01375). Nature of the experiment: ELISA, TNF-α coated, binder titrated, detection with anti-human IgG antibody-HRP. (In an ELISA, binding on a coated surface is turned into a signal by an enzyme label.)
The target of experiment [2] is human IL-17A (human) (UniProt Q16552). Nature of the experiment: ELISA, biotinylated IL-17A captured on neutravidin, binder titrated, detection with anti-human TLc antibody-HRP.
The target in experiment [3] is Recombinant TNF-α (R&D Systems, 210-TA-100/CF) (UniProt P01375). In words: dual-binding ELISA: TNF-α coated, fusion titrated, then constant biotinylated IL-23 (1 µg/mL), detection with Extravidin-HRP.
The target of experiment [4] is human IL-23 (human) (UniProt Q9NPF7). Nature of the experiment: ELISA, biotinylated IL-23 captured on neutravidin, binder titrated, detection with anti-human NGAL antibody-HRP.

The term EC50 denotes the concentration at which the effect is half-maximal.

As to “antibody of SEQ ID NOs: 61 and 62 (antibody; other documents disagree on this pair)”, in experiment [1], the EC50 turned out to be 0.16 nM.
Regarding “fusion protein of SEQ ID NOs: 63 and 62 (bispecific antibody; other documents disagree on this pair)”, the EC50 in experiment [2] was 1.25 nM.
For the substance “fusion protein of SEQ ID NOs: 64 and 62 (bispecific antibody; other documents disagree on this pair)”, the EC50 Dual binding in experiment [3] came to 1.54 nM. In addition, the values for the EC50 in experiment [1] and in experiment [4] were 0.26 nM and 1.2 nM, respectively.
